For this experiment, the target named is opioid receptor mu subtype (Opioid Mu) (Homo sapiens, UniProt P35372). The conditions noted are these: agonist at 1 μM; 10 nM Eu-GTP, 3 μM GDP; 1 hour incubation; Opioid Mu microspots on porous slide; time-resolved fluorescence.

Chains of the proteins cited; added tags and fusions are not shown.
UniProt P35372, whole entry: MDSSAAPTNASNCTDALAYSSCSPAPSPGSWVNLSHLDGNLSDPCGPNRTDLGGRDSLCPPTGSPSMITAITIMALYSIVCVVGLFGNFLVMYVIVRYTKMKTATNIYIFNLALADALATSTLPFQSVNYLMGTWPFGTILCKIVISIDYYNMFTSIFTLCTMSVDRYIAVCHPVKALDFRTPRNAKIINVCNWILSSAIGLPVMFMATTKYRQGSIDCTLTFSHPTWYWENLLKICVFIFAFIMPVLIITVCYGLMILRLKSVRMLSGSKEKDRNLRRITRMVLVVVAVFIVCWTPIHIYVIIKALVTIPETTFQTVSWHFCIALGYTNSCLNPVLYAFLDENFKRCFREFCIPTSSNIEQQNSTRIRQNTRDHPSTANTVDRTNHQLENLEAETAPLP

In the case of dynorphin A, the “binding of EuGTP to the GPCR microspots (receptor activation by agonist)” value is “increase the binding of EuGTP”.
